# Antibody variant affinities, Ab-14 heavy chain, assay 1

Values reported by Engelhart et al. 2022, doi:10.1038/s41597-022-01779-4 (FLAb copy).

The target is the same throughout: PDVDLGDISGINAS, from the HR2 region of SARS-CoV-2 spike.

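AAYL49 was designed without a model: most single CDR substitutions and a random sample of double and triple ones. AlphaSeq pools MATa yeast showing the antibodies with MATalpha yeast showing the peptide. The frequency of each diploid, read from paired DNA barcodes, reflects how well the two displayed proteins bind. A regression on co-assayed BCL2-family reference pairs converts the normalised counts of each replicate to an apparent Kd. Mating was done three times.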

Ab-14 is the parent antibody, in scFv form: VH, then a (GGGGS)3 linker, then VL. The light chain is unchanged in all variants.
VH: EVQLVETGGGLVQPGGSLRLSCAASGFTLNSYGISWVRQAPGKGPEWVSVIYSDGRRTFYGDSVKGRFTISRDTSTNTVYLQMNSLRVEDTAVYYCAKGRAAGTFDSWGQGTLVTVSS
VL: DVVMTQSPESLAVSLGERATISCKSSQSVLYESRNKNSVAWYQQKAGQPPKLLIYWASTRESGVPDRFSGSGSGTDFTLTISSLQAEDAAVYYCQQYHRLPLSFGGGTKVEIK

Each variant is given by its three heavy chain CDRs, as the data file delimits them; those of the parent are GFTLNSYGIS, VIYSDGRRTFYGDSVK, GRAAGTFDS. Every variant below is changed at T28 of the VH (sequential numbering). Kd is apparent (estimated from mating counts) and averaged on the log scale over replicates with a signal. Smaller is tighter. A pair that was not seen in any replicate is written "no signal"; this usually means weak binding, but a binder can also be missed. As a blank, each scFv also met three strains without target: over library AAYL49, 15% of these pairings were detected, typically at 11 µM and seldom below 680 nM.

Variant GFPLNSYGIS / VIYSTGRRTFYGDSVK / GRAAGTFDS gave 18 µM (2 of 3 replicates). Variant GFGLNSYGIS / VIYSDGWRTFYGDSVK / GRAAGTFCS gave 16 µM (1 of 3 replicates). With GFHLYSYGIS / VIYSDGRRTFYGDSVK / GRAAGTFDF the result was no signal (0 of 3 replicates). Variant GFHLNSYGIS / VDYPDGRRTFYGDSVK / GRAAGTFDS showed no signal (0 of 3 replicates). For GFPLNSYGIP / VIYSDGRRTFIGDSVK / GRAAGTFDS, the assay gave no signal (0 of 3 replicates). For GFNLNSYGIS / VIYSDGRRTFYGDSVC / GRAAGTFYS, the assay gave 110 µM (3 of 3 replicates). Variant GFPLNSYGIS / VNYSDGRRIFYGDSVK / GRAAGTFDS showed 17 µM (2 of 3 replicates). Variant GFYLNCYGIS / VIYSDGRRTFYGDSYK / GRAAGTFDS showed 2.8 µM (3 of 3 replicates). For GFHLNSYGIS / YIYSDGRRTFYGDSVK / GRAAFTFDS, the assay gave no signal (0 of 3 replicates).

For GFFLNSYGIS / VIYSDGRRTFSGDSVK / GRAAGTTDS, the assay gave 1.3 µM (1 of 3 replicates). For GFYLNSYGIS / VIYSDGRRSFYGDCVK / GRAAGTFDS, the assay gave no signal (0 of 3 replicates). With GFDLNSYEIS / VIYHDGRRTFYGDSVK / GRAAGTFDS the result was no signal (0 of 3 replicates). Variant NFWLNSYGIS / VIYSDGRRTFYGDSVK / GRAAGTFWS showed 39 µM (1 of 3 replicates). Variant GFWLNSYGIS / VIYSDGRGGFYGDSVK / GRAAGTFDS gave no signal (0 of 3 replicates). For GFDLNSTGIS / VIYSDGRRTFYGDSVK / GRAAGPFDS, the assay gave 67 µM (2 of 3 replicates). With GFDLNSYGIS / VIYSDGRNTHYGDSVK / GRAAGTFDS the result was 230 nM (3 of 3 replicates). With GFWLNSYGIS / PIYSDGRRTFYGDSVK / GRLAGTFDS the result was no signal (0 of 3 replicates). With GFALNSYGIS / VIYSDGRRTFYGDSVK / GRAAGTFDS the result was 200 µM (2 of 3 replicates).

With GFGLNSYGIS / VIYSDYRRTFYGDSVK / GRAAGTFDS the result was 470 µM (1 of 3 replicates). With GFYLNSYGIS / VIYFDGRRTFYGDSVK / GRAKGTFDS the result was 1.3 µM (2 of 3 replicates). For GFALNSYGII / VIYSDGRRTFYGDSVK / GHAAGTFDS, the assay gave no signal (0 of 3 replicates). For GFRSNSYGIN / VIYSDGRRTFYGDSVK / GRAAGTFDS, the assay gave no signal (0 of 3 replicates). Variant GVQGNSYGIS / VIYSDGRRTFYGDSVK / GRAAGTFDS gave 30 µM (1 of 3 replicates). For GFPLNSYGIS / VIYSDGYRDFYGDSVK / GRAAGTFDS, the assay gave 1.7 µM (2 of 3 replicates). For GFRLNSYGIS / VIYSDGRRTHYGQSVK / GRAAGTFDS, the assay gave 1.4 µM (2 of 3 replicates). Variant GFVLNSYGIS / VIYSDDRLTFYGDSVK / GRAAGTFDS gave no signal (0 of 3 replicates). Variant GFELESYGIS / VIYSDGRRTFYGDSVD / GRAAGTFDS showed 8.6 nM (3 of 3 replicates).

With GFLPNSYGIS / PIYSDGRRTFYGDSVK / GRAAGTFDS the result was no signal (0 of 3 replicates). With GFAVTSYGIS / VIYSDGRRTFYGDSVK / GRAAGTFDS the result was 10 nM (3 of 3 replicates). With GFFLNSQGIS / VIISDGRRTFYGDSVK / GRAAGTFDS the result was 360 nM (1 of 3 replicates). Variant GFYLNSWGIS / VIYSDGRRTFYGDSVK / GRAAQTFDS showed no signal (0 of 3 replicates). With GFPLNSYVIS / VIYSDGRRTFYGDSLK / GRAAGTFDS the result was no signal (0 of 3 replicates). With GFFLNSYGIS / VRYSDGRRTFYGDSVK / GRNAGTFDS the result was 3.9 µM (2 of 3 replicates). With GFFLNSYGIS / VIYSDARRTFRGDSVK / GRAAGTFDS the result was no signal (0 of 3 replicates). With GFCLNSYGIS / VIYSDGRRTFYGDSVK / RRAMGTFDS the result was no signal (0 of 3 replicates). Variant GFERNSYGIS / VIYSDGRRTFYGDSVA / GRAAGTFDS showed 160 µM (2 of 3 replicates).

With GFRLNSYGIS / VIISDGRRTFYGFSVK / GRAAGTFDS the result was 8.6 µM (1 of 3 replicates). With GFQLNSYGIS / VIYSDGRRTGYGDSVK / GRAAGTFDS the result was 6.5 nM (3 of 3 replicates). Variant GFQLNSHGIS / VIYSDGRRTFYGDSVK / GRAAGWFDS showed 1.6 µM (1 of 3 replicates). Variant GFALNSYGIS / VIYSDGRRTFDGDSVK / GFAAGTFDS showed no signal (0 of 3 replicates). With GFDLNSYGIR / VIYSDGRRTFYGDSWK / GRAAGTFDS the result was no signal (0 of 3 replicates).

A selection of 6 entries from above:

CDR-H1,CDR-H2,CDR-H3,Kd,detected
GFDLNSYGIR,VIYSDGRRTFYGDSWK,GRAAGTFDS,no signal,0 of 3
GFPLNSYGIS,VIYSTGRRTFYGDSVK,GRAAGTFDS,18 µM,2 of 3
GFYLNSYGIS,VIYSDGRRSFYGDCVK,GRAAGTFDS,no signal,0 of 3
GFWLNSYGIS,VIYSDGRGGFYGDSVK,GRAAGTFDS,no signal,0 of 3
GFPLNSYGIP,VIYSDGRRTFIGDSVK,GRAAGTFDS,no signal,0 of 3
GFERNSYGIS,VIYSDGRRTFYGDSVA,GRAAGTFDS,160 µM,2 of 3

In this assay the parent's reference entry averaged 4.4 nM; its copy inside this library read 13 µM (one replicate of three).